# Measurements as given in patent publication US9701669B2, “Preparation and use of 7a-amide substituted- 6,6-difluoro bicyclic himbacine derivatives as PAR-1 receptor antagonists” (Merck Sharp & Dohme Corp., priority 2013, dated 2017).
# Protein sequences, listed by entry. Tags and fused reporters are not part of them. Residues count along the entry.
# UniProt P25116, 22-425: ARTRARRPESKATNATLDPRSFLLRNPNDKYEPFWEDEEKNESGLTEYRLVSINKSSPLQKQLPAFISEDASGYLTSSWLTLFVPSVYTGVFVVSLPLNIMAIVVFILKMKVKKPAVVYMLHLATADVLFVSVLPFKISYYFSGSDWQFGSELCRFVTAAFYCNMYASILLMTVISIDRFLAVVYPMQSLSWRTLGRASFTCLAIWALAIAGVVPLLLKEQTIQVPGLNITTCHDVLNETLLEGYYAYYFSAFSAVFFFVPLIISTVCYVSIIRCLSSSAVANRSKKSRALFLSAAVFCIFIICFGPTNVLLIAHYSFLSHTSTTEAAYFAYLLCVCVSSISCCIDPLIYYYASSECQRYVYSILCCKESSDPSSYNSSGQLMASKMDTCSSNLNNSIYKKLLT
# Where two headings read alike, the source gives them in different places.
# Biological target: PAR-1 receptor (Homo sapiens (Human), UniProt P25116)
# Experiment: PAR-1 FLIPR Assay
# Type: cell-based
# Procedure: This assay measures the potency of the inventive compounds as PAR-1 receptor antagonists.
# Frozen HEK 293 Cells were plated in 384-well PDL coated plates at 12000 cells/well in 50 uL of DMEM media containing 10% FBS, pen/strep/L-Glutamine and non-essential amino acids, incubated overnight at 37° C./5% CO2. Media was then removed from the cells, incubated with 33 ul of Calcium-5 dye in assay buffer (Hank's buffer containing 20 mM HEPES, 0.04% Chaps and 2.5 mM Probenecid) for 60 minutes at 37° C. 2 uL of varying concentrations of compound in 40% DMSO in assay buffer (final DMSO concentration is 2.3%) were then added to the cells and incubated at 25° C. for 30 minutes. […] The range of peptide was from 1.5-3 μM. The final volume was 40 uL/well, with 2% DMSO. […] The data were analyzed by taking the peak signal over a portion of the range of the 60 scans and dividing this signal by the minimum signal for that same range.
# [1] = HEK 293 cells, calcium signal after PAR-1 selective receptor-activating peptide at 80% activation
SMILES,IC50 [1] [nM],IC50 [nM]
"CC(C(N)=O)[C@@]12CC(F)(F)[C@@H](C)[C@H](/C=C/c3ccc(-c4ccccc4C#N)cn3)[C@@H]1[C@@H](C)OC2=O (single isomer, unassigned) [Example 8, (R or S)-2-((1R,3aR,6S, 7R,7aS)-7-((E)-2-(5-(2-cyanophenyl)pyridin-2-yl)vinyl)-5,5-difluoro-1,6-dimethyl-3-oxooctahydro-isobenzofuran-3a-yl)propanamide]",4.07,
"CC(C(N)=O)[C@@]12CC(F)(F)[C@@H](C)[C@H](/C=C/c3ccc(-c4ccccc4C#N)cn3)[C@@H]1[C@@H](C)OC2=O (single isomer, unassigned) [Example 9, (S or R)-2-((1R,3aR,6S, 7R,7aS)-7-((E)-2-(5-(2-cyanophenyl)pyridin-2-yl)vinyl)-5,5-difluoro-1,6-dimethyl-3-oxooctahydro-isobenzofuran-3a-yl)propanamide]",11.3,
"CC(C(N)=O)[C@@]12CC(F)(F)[C@@H](C)[C@H](/C=C/c3ccc(-c4ccccc4C#N)cn3)[C@@H]1[C@@H](C)OC2=O (stereo partly drawn) [Example 7, 2-((1R,3aR, 6S,7R,7aS)-7-((E)-2-(5-(2-cyanophenyl)pyridin-2-yl)vinyl)-5,5-difluoro-1,6-dimethyl-3-oxooctahydro-isobenzofuran-3a-yl)propanamide]",,4.43
